Yeast mating assay B: variants of the scFv Ab-14

The measurements come from Li et al. 2023 (doi:10.1038/s41467-023-39022-2) through the FLAb antibody collection.

The target is the same throughout: PDVDLGDISGINAS, from the HR2 region of SARS-CoV-2 spike.

Parent scFv Ab-14: VH joined to VL by a 15-residue (Gly4Ser)3 linker. Changes lie in the heavy chain CDRs alone.
VH: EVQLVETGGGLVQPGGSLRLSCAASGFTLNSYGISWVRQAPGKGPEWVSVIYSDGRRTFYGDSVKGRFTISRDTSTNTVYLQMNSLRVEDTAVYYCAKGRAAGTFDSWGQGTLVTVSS
VL: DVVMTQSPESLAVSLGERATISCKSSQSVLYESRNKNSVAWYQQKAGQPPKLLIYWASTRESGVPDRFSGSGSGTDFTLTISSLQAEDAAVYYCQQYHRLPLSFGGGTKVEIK

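The starting antibody came from a phage panning campaign against this peptide. This is the validation round: designs drawn from the data on random variants, tested in the same kind of assay. Group labels follow the data file (Ctrl: baseline library sampled from a position-specific scoring matrix, with some repeated check sequences; Rand: our label for a block that the file lists under HC and that is probably the random mutants of the ten best first-round binders; En: ensemble of fine-tuned language models; GP: Gaussian process model; GPLM: also part of the Gaussian process libraries; HC: hill climbing; Gen: genetic algorithm; Gibbs: Gibbs sampling; a sequence that several methods proposed may carry one label only). AlphaSeq pools MATa yeast showing the antibodies with MATalpha yeast showing the peptide. Mating (16 h, 30 °C) was followed by selection of diploids and sequencing of their barcodes. Scores were corrected for input abundance and mapped to Kd with protein pairs of known affinity run in the same pool. There are six technical replicates.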

The parent's heavy chain CDRs are GFTLNSYGIS, VIYSDGRRTFYGDSVK, GRAAGTFDS; each variant's own CDRs replace them letter for letter. Values are log10 of the apparent Kd in nM; lower means stronger binding. "nd" marks a missing value. The strain was present, yet no cells mated with the target were sequenced in that replicate, which points to weak or no binding. In the paper, a design with two or fewer of six values counts as a poor binder. Three control strains display no target. For all heavy chain designs, 1% of the pairings with them gave a signal, with a median of 2.08 and one signal in twenty below 0.84, so weak values seen in few replicates may be background. Of ten entries with the parent sequence, four were seen in most replicates (averages 0.34 to 2.37), three in one and three in none, so single entries are noisy. Values of this round are not directly comparable with the first-round values of the same sequences.

{"CDR-H1": "GFGLSEYGIS", "CDR-H2": "VIYADGVRASYADNVK", "CDR-H3": "GFNYGVDIL", "group": "En_Gibbs", "replicates, log10 nM": "nd / nd / nd / nd / nd / nd"}
{"CDR-H1": "GFTLNSYGIS", "CDR-H2": "VIYADYRRTRYGSSVK", "CDR-H3": "GRAAGTNKS", "group": "Rand", "replicates, log10 nM": "nd / nd / nd / nd / nd / nd"}
{"CDR-H1": "GLTLNSYGIS", "CDR-H2": "VIYSDGRRTFYGDSVK", "CDR-H3": "GRCAGTFDS", "group": "Ctrl", "replicates, log10 nM": "nd / nd / nd / nd / nd / nd"}
{"CDR-H1": "GFDLNEYGIS", "CDR-H2": "VIYADGRRTFYTDSVK", "CDR-H3": "GAMAGTFDQ", "group": "En_HC", "replicates, log10 nM": "0.39 / 0.38 / 0.23 / 0.05 / 0.31 / 0.14"}
{"CDR-H1": "GFDLNEYGIS", "CDR-H2": "VIYADGRRTQYIDSVK", "CDR-H3": "GNVAGTFDE", "group": "En_HC", "replicates, log10 nM": "0.05 / 0.02 / nd / nd / -0.41 / 0.87"}
{"CDR-H1": "GFHLNSYGIS", "CDR-H2": "VIYSDGMRTFYSDSVK", "CDR-H3": "GRQAGTFDS", "group": "GP_Gibbs", "replicates, log10 nM": "2.03 / 1.04 / 1.00 / 1.26 / 1.13 / 1.10"}
{"CDR-H1": "GFTLNEYGIS", "CDR-H2": "VIYQDNRRTFYGDSVK", "CDR-H3": "GRAAVTFDQ", "group": "Rand", "replicates, log10 nM": "nd / nd / nd / nd / nd / nd"}
{"CDR-H1": "GFDLDEYGIS", "CDR-H2": "VIYADGRRTFYADSVK", "CDR-H3": "GEAAGTFTQ", "group": "En_HC", "replicates, log10 nM": "0.19 / -0.17 / -0.08 / -0.08 / -0.08 / 0.08"}
{"CDR-H1": "GFTLNEYGIS", "CDR-H2": "VIYSDGRRTFYGDSVK", "CDR-H3": "GRNAGTFDG", "group": "GP_HC", "replicates, log10 nM": "2.24 / 0.68 / 1.28 / 0.96 / 0.70 / 1.70"}
{"CDR-H1": "GFSLNSYGIS", "CDR-H2": "VIYSDGRRTFYKDSVK", "CDR-H3": "GRAAGTFDS", "group": "GPLM_Gen", "replicates, log10 nM": "1.29 / -0.49 / 0.48 / 0.60 / -0.25 / -0.20"}
{"CDR-H1": "GFDLNEYGIS", "CDR-H2": "VIYADGLRTFYADSVK", "CDR-H3": "GNLAGTFDS", "group": "En_HC", "replicates, log10 nM": "0.22 / -0.60 / -0.59 / -0.80 / -0.17 / 0.03"}
{"CDR-H1": "GFSLNMYGIS", "CDR-H2": "VIYSDGRRTFYGDSVK", "CDR-H3": "GRAAGTFDS", "group": "GPLM_Gen", "replicates, log10 nM": "1.18 / 0.76 / 0.98 / 0.99 / 1.20 / 1.40"}
{"CDR-H1": "GFDLNDYGIS", "CDR-H2": "VIYSDGRRTFYGDAVK", "CDR-H3": "GRAAGTFDI", "group": "GP_HC", "replicates, log10 nM": "0.44 / 0.46 / 0.37 / -0.31 / -0.49 / 0.96"}
{"CDR-H1": "GFELNEYGIS", "CDR-H2": "VIYSDGRRTFYGDSVK", "CDR-H3": "GQAAGTFDK", "group": "GPLM_Gen", "replicates, log10 nM": "0.29 / 0.77 / 0.40 / 0.02 / 0.33 / 1.41"}
{"CDR-H1": "GFDLNEYGIS", "CDR-H2": "VIYADGHRSKYQNSVK", "CDR-H3": "GGQADFALL", "group": "En_Gibbs", "replicates, log10 nM": "nd / nd / nd / nd / nd / nd"}
{"CDR-H1": "GFSLNEYGIS", "CDR-H2": "VIYSDGRRTFYGQSVK", "CDR-H3": "GRTAGTFDS", "group": "GPLM_Gen", "replicates, log10 nM": "0.53 / 0.09 / 0.46 / 0.61 / 0.25 / 0.84"}
{"CDR-H1": "GFTLNSYGIS", "CDR-H2": "VIYSDARRTFYGDSVK", "CDR-H3": "GRAAGTFDS", "group": "Ctrl", "replicates, log10 nM": "nd / nd / nd / nd / nd / nd"}
{"CDR-H1": "GFDLDEYGVS", "CDR-H2": "VIYADGIRCTYADAVK", "CDR-H3": "GKHGGAFFV", "group": "En_Gibbs", "replicates, log10 nM": "nd / nd / nd / nd / nd / nd"}
{"CDR-H1": "GFDLDEYGIS", "CDR-H2": "VIYADGKRTAYADSVK", "CDR-H3": "GTNAGTFDL", "group": "En_Gen", "replicates, log10 nM": "0.13 / -0.11 / -0.02 / -0.07 / -0.11 / 0.21"}
{"CDR-H1": "GFHLNSYGIS", "CDR-H2": "VIYSDGRRTFYIDSVK", "CDR-H3": "GRVAGTFDS", "group": "GP_HC", "replicates, log10 nM": "nd / nd / 1.55 / nd / 2.66 / nd"}
{"CDR-H1": "GFDLNEYGIS", "CDR-H2": "VIYADGQRTAYADSVK", "CDR-H3": "GSNAGTFDI", "group": "En_Gen", "replicates, log10 nM": "-0.12 / 0.00 / -0.46 / -0.21 / -0.60 / 0.30"}
{"CDR-H1": "GFPLNDYGIS", "CDR-H2": "VIYADGRRTFYGDSVK", "CDR-H3": "GKAAGTFDS", "group": "Ctrl", "replicates, log10 nM": "-0.02 / 0.46 / -0.92 / -0.35 / -0.22 / -0.25"}